The values that follow come from patent US20170165247A1, “CRYSTALLINE COMPOUNDS OF DABIGATRAN ETEXILATE” (OLON S.p.A., priority 2014, published 2017).

The nature of the series: Thermodynamic solubility test in buffer solution (HPLC). Particulars: 37° C., 24 hours, compared with dabigatran etexilate mesylate. Format: physicochemical. The method, then:
The solubility tests were performed in a buffer solution at ph 4.5 and compared with the solubility data of dabigatran etexilate mesylate (commercial form). In the HPLC method herein below, acetonitrile was used to dissolve the active ingredient.
Thermodynamic Solubility Tests
The sample (approx. 50 mg) was weighted in a vial and left under magnetic stirring (approx. 300 rpm) in approx. 2 mL of buffer solution at 37° C. for 24 hours. The experiments were carried out at pH 4.5 and pH 6.8. The suspensions were filtered with 0.45 μm filter and analyzed by HPLC method previously reported. From the obtained area an opportune dilution of the sample was performed to obtain a value consistent with the Calibration Curve. Every diluted sample was analyzed by HPLC and the results were interpolated by the calibration curve.
Each experiment was replicated twice.

For “Dabigatran Etexilate Orotate Anhydrous Form a (Dabigatran/Orotic Acid 1/1 Mol/Mole)”, the “thermodynamic solubility, times higher than the mesylate derivative” value is “more than 1.4 times”.
